Legend:
[1] = biological target: T1, OCT1 (Homo sapiens, UniProt O15245); details: ref 1 (Tzvetkov et al., 2018, supplement); cited from earlier work
T1 sequence (O15245 1-554): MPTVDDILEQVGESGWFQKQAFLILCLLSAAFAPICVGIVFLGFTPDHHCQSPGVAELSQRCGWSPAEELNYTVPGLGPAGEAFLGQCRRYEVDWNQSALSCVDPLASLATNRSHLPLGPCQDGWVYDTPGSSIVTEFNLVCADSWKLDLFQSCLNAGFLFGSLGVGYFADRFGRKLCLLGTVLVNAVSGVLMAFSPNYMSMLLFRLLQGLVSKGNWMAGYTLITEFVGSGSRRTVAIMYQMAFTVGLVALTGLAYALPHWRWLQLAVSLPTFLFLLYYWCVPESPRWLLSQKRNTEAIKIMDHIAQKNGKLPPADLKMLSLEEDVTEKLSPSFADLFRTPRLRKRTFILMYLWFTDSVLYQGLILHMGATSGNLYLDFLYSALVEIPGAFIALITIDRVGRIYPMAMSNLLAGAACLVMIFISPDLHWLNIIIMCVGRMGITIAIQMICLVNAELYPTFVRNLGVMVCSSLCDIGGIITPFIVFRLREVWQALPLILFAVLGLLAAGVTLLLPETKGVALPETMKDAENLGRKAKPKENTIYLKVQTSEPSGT

[2] = biological target: T2, OCT2 (Homo sapiens, UniProt O15244)
T2 sequence (O15244 1-555): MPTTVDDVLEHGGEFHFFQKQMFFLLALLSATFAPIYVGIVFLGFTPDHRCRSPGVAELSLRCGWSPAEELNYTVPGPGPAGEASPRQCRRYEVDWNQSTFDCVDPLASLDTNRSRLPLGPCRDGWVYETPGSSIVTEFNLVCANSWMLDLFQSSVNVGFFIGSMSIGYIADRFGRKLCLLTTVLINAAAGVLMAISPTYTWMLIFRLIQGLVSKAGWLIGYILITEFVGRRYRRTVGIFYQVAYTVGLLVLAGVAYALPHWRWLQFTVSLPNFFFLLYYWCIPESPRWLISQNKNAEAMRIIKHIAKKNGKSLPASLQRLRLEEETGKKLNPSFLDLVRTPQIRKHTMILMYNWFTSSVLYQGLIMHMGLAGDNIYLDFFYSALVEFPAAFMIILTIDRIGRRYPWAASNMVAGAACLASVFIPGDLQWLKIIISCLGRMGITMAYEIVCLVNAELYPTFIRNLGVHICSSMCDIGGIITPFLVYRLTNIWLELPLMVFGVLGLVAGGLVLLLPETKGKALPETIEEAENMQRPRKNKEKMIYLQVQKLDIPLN

Row | SMILES | vmax ± SEM [pmol × mg Protein−1 × min−1] [1] | difference between enantiomers in the inhibition of OCT2 (in words) [2]
1 | CC(Cc1ccc(O)cc1)NCC(O)c1cc(O)cc(O)c1 (racemic) [rac Fenoterol, Fenoterol] | 57.2 pmol × mg Protein−1 × min−1 | 
2 | C=C[C@H]1C[N@@]2CC[C@H]1C[C@H]2[C@H](O)c1ccnc2ccc(OC)cc12 [Quinine] |  | noticeable differences

From publication PMC10698726 (Molecular Pharmaceutics, 2023)
